Measured values reported in ChEMBL document CHEMBL1811891 (Bioorg Med Chem, 2011).

The chains behind the UniProt entries cited, without tags or fusion partners.
UniProt P51681, whole entry: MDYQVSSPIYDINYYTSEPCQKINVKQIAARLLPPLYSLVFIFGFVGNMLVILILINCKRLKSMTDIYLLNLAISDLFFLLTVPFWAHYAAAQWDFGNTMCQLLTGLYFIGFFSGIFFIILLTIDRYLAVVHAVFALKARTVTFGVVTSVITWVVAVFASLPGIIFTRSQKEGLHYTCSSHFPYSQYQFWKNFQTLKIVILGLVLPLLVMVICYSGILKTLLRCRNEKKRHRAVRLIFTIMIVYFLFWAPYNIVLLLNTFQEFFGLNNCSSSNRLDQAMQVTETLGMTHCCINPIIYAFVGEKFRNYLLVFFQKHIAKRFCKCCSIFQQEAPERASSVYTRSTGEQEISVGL

Experiments:
[1] = target: C-C chemokine receptor type 5 (Homo sapiens, UniProt P51681); experiment: Antagonist activity at human CCR5 expressed in CHO cells assessed as inhibition of MIP-1alpha-induced calcium mobilization; format: functional, cell-based
[2] = Antagonist activity against human CCR5 receptor assessed as inhibition of HIV1 gp120-induced cell-cell fusion between viral envolop protein expressing human HEK293 cells to human CD4/CCR5 receptor expressing HOS cells after 24 hrs by luciferase reporter gene assay

Row | Structure (SMILES) | IC50 [1] [nM] | IC50 [2] [nM]
1 | CCCCN1C(=O)[C@@H]([C@H](O)C2CCCCC2)NC(=O)C12CCN(Cc1ccc(Oc3ccc(NS(C)(=O)=O)cc3)cc1)CC2.Cl | 26 | –
2 | CNC(=O)c1ccc(Oc2ccc(CN3CCC4(CC3)C(=O)N[C@H]([C@H](O)C3CCCCC3)C(=O)N4C)cc2)cc1 | 59 | –
3 | CCCN1C(=O)[C@@H]([C@H](O)C2CCCCC2)NC(=O)C12CCN(Cc1ccc(Oc3ccc(C(=O)O)cc3)cc1)CC2 | 30 | –
4 | CCCCN1C(=O)[C@@H]([C@H](O)C2CCCCC2)NC(=O)C12CCN(Cc1ccc(Oc3ccccc3)cc1)CC2.Cl | – | 7.8
